Literature values in patent US20110287437A1, “ASSAYS TO PREDICT CARDIOTOXICITY” (priority 2010, published 2011).

Settings: treatment of patients; prescribing information

trastuzumab: the monoclonal antibody that targets the ERBB2 receptor
Cardiotoxicity / adverse cardiac effects reported: Cardiotoxicity of a targeted agent was first reported
